# Literature values in patent US20220354833A1, “ALVELESTAT FOR USE IN THE TREATMENT OF GRAFT REJECTION, BRONCHIOLITIS OBLITERANS SYNDROME AND GRAFT VERSUS HOST DISEASE” (MEREO BIOPHARMA 4 LIMITED, priority 2019, published 2022).
# By UniProt entry, the sequences of proteins in these tests, tags left out. Residues count along the entry.
# UniProt P24158, 28-248 limits assumed: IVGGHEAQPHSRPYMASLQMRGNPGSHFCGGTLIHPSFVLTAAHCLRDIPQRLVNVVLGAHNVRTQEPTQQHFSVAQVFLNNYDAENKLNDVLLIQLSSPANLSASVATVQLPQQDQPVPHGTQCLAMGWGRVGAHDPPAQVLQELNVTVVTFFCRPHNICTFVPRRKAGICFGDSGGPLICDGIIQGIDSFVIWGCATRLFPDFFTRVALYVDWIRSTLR
# UniProt P08311, 21-244 limits assumed: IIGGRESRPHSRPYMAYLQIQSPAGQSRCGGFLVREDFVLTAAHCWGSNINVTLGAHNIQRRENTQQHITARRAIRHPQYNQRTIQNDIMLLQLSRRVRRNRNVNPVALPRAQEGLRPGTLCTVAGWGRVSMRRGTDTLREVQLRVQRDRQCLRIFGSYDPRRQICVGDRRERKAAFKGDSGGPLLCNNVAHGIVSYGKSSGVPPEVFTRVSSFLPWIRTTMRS
# UniProt P08246, 30-267 limits assumed: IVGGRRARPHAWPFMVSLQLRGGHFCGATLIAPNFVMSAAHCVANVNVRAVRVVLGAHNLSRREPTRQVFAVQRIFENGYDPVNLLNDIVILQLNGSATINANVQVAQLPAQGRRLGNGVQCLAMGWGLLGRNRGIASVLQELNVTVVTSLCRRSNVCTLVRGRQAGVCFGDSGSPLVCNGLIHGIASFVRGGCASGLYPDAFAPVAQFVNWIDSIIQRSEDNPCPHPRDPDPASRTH
# How the values were obtained:
# proteinase-3 = proteinase-3 (Homo sapiens, UniProt P24158); conditions: human NE vs proteinase-3; cited from earlier work
# cathepsin G = cathepsin G (Homo sapiens, UniProt P08311); conditions: human NE vs cathepsin G; cited from earlier work
# trypsin = conditions: human NE vs trypsin; cited from earlier work
# chymotrypsin = conditions: human NE vs chymotrypsin; cited from earlier work
# pancreatic elastase = conditions: human NE vs pancreatic elastase; cited from earlier work
# NE = NE (Homo sapiens, UniProt P08246); conditions: explosive-release assay; cited from earlier work
smiles,measurement,setting,value
"Cc1c(-c2ccnn2C)cc(C(=O)NCc2ccc(S(C)(=O)=O)cn2)c(=O)n1-c1cccc(C(F)(F)F)c1 [alvelestat, N-{[5-(methanesulfonyl)pyridin-2-yl]methyl}-6-methyl-5-(1-methyl-1H-pyrazol-5-yl)-2-oxo-1-[3-(trifluoromethyl)phenyl]-1,2-dihydropyridine-3-carboxamide]",selectivity for human NE compared with proteinase-3,proteinase-3,at least 1900 fold
same,selectivity for human NE compared with cathepsin G,cathepsin G,at least 600 fold
same,selectivity for human NE compared with trypsin,trypsin,at least 1900 fold
same,selectivity for human NE compared with chymotrypsin,chymotrypsin,at least 1900 fold
same,selectivity for human NE compared with pancreatic elastase,pancreatic elastase,at least 1900 fold
same,IC50,NE,50 nM
same,pIC50,NE,7.30
